Results: patent US8906933B2, “Dihydropyrimidin-2(1H)-one compounds as neurokinin-3 receptor antagonists” (N30 Pharmaceuticals, Inc., priority 2010, dated 2014)

Amino acid sequences for entries named in this document (tags omitted). A change or cut given only in a name is not applied to a line headed by its entry.
UniProt P11766: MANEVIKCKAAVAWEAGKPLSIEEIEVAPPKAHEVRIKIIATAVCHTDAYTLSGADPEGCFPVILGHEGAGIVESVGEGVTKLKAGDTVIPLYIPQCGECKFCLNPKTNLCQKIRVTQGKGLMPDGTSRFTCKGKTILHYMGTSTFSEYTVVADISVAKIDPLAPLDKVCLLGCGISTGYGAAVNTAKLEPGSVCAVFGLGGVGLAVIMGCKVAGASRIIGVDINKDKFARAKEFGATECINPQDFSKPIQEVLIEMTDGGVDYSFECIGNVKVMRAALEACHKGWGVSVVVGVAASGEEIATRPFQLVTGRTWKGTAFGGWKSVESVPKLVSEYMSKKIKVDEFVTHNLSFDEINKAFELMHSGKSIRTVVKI

Target: GSNOR (Homo sapiens (Human), UniProt P11766)
Assay: GSNOR IC50 (method in incorporated applications)
Type: biochemical

IC50: 0.018 µM
Compound: CCOc1cc([C@@H]2NC(=O)NC(c3ccccc3)=C2c2ccsc2)cc([N+](=O)[O-])c1O [4-(3-ethoxy-4-hydroxy-5-nitrophenyl)-6-phenyl-5-(thiophen-3-yl)-3,4-dihydropyrimidin-2(1H)-one]
